Data on 1 compound can be found in PMC11738990, “A small-molecule TNIK inhibitor targets fibrosis in preclinical and clinical models” (Nature Biotechnology, 2024).

Molecules are shown by their SMILES. Where two headings read alike, the source gives them in different places.

For data set [1] the following is noted: Day 28.
The subject of data set [2] is healthy subjects. Conditions: in vivo.
Data set [3] deals with healthy subjects. Conditions: MAD any dose N=18.
A further data set relates to mice. The conditions noted are these: male mice, 180 mg/kg daily; ref Insilico Medicine, 2021; cited from earlier work.

Regarding `CC(C)n1cnc(-c2ccc(F)cc2)c1-c1nc(C(=O)Nc2ccc(N3CCN(C)CC3)cc2)c[nH]1` [INS018_055, 2-[4-(4-fluorophenyl)-1-(prop-2-yl)imidazol-5-yl]-N-[4-(4-methylhexahydropyrazin-1-yl)phenyl]-1H-imidazole-4-carboxamide], the “Concentration, left lung tissue” value turned out to be 16.18 ± 3.73 ng/g in data set [1] (0.1 mg/mL), 77.55 ± 23.52 ng/g in data set [1] (0.3 mg/mL), 301.47 ± 66.25 ng/g in data set [1] (1.0 mg/mL) and 1468.07 ± 278.61 ng/g in data set [1] (6.0 mg/mL). Moreover, the “Concentration, plasma” value in data set [1] (0.1 mg/mL) was determined as 0.33 ± 0.12 ng/mL; in data set [1] (0.3 mg/mL), 1.13 ± 0.37 ng/mL; in data set [1] (1.0 mg/mL), 4.41 ± 0.80 ng/mL; in data set [1] (6.0 mg/mL), 30.40 ± 3.63 ng/mL. The “Concentration, right lung tissue” value in data set [1] (0.1 mg/mL) came out at 17.37 ± 3.81 ng/g; in data set [1] (0.3 mg/mL), 78.35 ± 10.05 ng/g; in data set [1] (1.0 mg/mL) it was 340.47 ± 53.82 ng/g; in data set [1] (6.0 mg/mL) it was 1490.45 ± 328.68 ng/g. For the same compound, the entries for the “General disorders and administration site conditions” value in the data set on healthy subjects [2] and with healthy subjects [3] were 3 (10.0) [3] and 38.9%, respectively. In the data set with healthy subjects [3], the Mouth ulceration is given as 11.1%. In the data set on mice, the “reduction of haemoglobin concentration” value was 16.8%.
